From ChEMBL document CHEMBL1149635, “New chemical tools for investigating human mitotic kinesin Eg5” (Bioorg Med Chem, 2007)

Target: T1, Kinesin-like protein KIF11 (Homo sapiens, UniProt P52732)
T1 sequence (P52732 whole entry): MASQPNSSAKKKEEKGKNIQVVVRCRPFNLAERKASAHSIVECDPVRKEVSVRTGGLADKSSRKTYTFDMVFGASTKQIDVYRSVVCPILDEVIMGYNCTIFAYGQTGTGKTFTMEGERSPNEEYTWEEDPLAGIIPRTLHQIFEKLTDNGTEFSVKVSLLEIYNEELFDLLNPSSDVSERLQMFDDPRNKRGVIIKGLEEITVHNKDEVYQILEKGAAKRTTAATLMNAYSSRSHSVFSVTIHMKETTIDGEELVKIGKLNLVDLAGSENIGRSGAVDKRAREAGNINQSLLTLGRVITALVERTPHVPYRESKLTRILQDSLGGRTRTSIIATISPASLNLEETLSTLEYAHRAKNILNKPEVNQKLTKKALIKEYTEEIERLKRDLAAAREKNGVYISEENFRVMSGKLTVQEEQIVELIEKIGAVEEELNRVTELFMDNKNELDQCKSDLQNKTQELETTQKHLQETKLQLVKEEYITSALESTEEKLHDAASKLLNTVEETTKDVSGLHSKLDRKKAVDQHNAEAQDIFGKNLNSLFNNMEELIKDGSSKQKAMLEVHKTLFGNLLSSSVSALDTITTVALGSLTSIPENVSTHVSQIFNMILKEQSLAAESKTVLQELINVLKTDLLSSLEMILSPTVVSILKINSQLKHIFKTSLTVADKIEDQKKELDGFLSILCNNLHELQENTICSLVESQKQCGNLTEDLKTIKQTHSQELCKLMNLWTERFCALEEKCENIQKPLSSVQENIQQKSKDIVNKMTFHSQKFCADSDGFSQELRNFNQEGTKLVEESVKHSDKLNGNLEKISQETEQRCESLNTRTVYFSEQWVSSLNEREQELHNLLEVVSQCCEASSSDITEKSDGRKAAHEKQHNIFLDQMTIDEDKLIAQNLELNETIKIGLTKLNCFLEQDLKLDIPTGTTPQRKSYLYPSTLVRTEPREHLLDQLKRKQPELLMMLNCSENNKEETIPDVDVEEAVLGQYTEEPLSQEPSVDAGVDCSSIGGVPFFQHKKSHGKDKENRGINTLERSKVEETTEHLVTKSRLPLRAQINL
Assay: Inhibition of Eg5 ATPase activity expressed in Escherichia coli after 12 hrs
Format: functional
Method in brief: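 Basal (no microtubules) steady-state ATPase of Eg5 2–386 at 1.0 µM, pyruvate kinase/lactate dehydrogenase-coupled assay, room temperature, duplicate, 2.5% DMSO; top concentration 500 µM. Acetylated analogues alternatively preincubated (2 mM) 12 h at 37 °C in DMEM + 10% FBS before basal ATPase measurement.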

pIC50: 5.70
SMILES: O=C1CCCC2=C1C(c1cccc(O)c1)NC(=S)N2 (stereo unspecified)

pIC50: −log10 of the molar value.
